Test results from patent publication US20160375033A1, “METHODS OF TREATMENT WITH TASELISIB” (Genentech, Inc., priority 2015, published 2016).

By UniProt entry, the sequences of proteins in these tests, tags left out. Where a name states a change or a piece, a line headed by the entry shows the natural chain unless it says otherwise.
UniProt P42336, whole entry H1047R: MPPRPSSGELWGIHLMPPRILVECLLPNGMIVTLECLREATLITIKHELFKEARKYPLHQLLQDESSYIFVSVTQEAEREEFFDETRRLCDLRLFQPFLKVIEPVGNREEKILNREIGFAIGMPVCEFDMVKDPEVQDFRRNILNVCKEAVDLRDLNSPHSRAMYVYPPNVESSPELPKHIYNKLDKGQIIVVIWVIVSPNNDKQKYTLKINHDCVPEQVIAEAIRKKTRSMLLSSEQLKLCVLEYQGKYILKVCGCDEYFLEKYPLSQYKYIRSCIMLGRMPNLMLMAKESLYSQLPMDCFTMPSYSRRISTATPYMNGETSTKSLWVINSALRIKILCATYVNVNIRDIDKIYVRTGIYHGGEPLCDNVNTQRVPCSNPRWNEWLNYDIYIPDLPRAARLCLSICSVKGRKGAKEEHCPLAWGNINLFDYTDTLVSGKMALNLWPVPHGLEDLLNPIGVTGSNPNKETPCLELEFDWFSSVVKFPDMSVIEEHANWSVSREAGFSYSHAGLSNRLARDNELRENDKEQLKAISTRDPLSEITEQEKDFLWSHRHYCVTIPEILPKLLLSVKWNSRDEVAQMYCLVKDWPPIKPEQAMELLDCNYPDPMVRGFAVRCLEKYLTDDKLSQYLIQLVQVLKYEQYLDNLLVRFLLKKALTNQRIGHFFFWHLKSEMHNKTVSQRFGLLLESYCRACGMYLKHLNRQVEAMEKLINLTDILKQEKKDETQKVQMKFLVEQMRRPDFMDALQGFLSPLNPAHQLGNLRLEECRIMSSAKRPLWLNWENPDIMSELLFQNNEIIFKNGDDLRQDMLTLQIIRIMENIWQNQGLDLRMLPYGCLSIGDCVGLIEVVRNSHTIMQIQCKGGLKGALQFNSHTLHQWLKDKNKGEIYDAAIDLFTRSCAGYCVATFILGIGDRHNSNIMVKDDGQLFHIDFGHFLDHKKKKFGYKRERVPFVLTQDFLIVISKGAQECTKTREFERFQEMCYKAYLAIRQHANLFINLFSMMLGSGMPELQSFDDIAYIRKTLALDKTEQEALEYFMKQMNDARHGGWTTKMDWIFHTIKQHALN
UniProt P42336, whole entry E545K: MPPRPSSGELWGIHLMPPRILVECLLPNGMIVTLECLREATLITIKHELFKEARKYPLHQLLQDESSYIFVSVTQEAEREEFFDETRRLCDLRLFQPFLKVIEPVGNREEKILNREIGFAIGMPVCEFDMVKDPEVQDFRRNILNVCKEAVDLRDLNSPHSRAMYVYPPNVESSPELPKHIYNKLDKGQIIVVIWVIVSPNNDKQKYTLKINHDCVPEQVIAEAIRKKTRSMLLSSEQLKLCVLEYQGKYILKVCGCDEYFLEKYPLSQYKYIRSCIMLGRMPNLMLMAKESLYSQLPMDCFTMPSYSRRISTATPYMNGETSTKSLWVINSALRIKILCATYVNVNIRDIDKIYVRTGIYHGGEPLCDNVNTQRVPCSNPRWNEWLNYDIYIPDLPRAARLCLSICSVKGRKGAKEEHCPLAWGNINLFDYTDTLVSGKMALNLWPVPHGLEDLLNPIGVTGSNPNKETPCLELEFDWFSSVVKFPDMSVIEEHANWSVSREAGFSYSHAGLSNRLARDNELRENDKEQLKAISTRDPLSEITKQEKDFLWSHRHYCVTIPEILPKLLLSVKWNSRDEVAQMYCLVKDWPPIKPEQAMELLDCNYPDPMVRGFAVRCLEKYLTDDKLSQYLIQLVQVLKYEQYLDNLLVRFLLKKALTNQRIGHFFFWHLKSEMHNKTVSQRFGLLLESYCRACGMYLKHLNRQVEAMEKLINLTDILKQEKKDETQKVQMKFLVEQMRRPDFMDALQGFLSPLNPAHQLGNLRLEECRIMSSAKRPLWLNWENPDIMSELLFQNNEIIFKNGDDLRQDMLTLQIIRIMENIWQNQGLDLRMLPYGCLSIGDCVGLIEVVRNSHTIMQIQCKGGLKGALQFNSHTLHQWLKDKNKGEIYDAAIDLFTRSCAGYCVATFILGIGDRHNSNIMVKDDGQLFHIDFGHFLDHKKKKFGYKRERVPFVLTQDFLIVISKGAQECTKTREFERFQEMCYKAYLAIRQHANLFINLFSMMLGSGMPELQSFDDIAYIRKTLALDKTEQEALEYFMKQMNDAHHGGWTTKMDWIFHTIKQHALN
UniProt P42336, whole entry: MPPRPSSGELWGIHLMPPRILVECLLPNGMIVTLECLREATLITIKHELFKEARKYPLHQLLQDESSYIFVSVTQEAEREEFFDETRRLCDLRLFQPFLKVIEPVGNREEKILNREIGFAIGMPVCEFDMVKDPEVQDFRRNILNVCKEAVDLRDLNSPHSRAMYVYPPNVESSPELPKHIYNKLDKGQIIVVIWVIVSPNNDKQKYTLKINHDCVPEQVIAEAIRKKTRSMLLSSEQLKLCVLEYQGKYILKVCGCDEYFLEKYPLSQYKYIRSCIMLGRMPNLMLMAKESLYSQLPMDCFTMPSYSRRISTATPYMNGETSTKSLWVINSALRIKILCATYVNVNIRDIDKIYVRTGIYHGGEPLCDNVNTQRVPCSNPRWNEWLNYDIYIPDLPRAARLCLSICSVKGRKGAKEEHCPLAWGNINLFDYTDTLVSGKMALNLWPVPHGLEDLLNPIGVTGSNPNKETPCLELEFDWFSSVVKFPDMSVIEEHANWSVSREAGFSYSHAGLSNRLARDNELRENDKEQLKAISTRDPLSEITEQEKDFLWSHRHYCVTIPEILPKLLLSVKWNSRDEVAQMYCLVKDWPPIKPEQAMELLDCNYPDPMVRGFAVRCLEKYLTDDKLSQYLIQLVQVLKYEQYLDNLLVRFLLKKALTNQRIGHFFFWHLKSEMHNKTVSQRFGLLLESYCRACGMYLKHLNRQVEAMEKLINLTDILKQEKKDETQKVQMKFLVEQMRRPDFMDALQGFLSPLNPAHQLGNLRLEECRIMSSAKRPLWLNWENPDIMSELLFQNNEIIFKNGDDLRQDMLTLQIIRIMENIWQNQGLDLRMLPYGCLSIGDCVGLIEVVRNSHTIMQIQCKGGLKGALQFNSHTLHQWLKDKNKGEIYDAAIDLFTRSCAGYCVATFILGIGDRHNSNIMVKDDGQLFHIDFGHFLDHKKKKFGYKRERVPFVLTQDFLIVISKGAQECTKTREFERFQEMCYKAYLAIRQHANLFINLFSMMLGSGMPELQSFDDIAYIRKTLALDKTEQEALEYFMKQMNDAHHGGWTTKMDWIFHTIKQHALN
UniProt O00329: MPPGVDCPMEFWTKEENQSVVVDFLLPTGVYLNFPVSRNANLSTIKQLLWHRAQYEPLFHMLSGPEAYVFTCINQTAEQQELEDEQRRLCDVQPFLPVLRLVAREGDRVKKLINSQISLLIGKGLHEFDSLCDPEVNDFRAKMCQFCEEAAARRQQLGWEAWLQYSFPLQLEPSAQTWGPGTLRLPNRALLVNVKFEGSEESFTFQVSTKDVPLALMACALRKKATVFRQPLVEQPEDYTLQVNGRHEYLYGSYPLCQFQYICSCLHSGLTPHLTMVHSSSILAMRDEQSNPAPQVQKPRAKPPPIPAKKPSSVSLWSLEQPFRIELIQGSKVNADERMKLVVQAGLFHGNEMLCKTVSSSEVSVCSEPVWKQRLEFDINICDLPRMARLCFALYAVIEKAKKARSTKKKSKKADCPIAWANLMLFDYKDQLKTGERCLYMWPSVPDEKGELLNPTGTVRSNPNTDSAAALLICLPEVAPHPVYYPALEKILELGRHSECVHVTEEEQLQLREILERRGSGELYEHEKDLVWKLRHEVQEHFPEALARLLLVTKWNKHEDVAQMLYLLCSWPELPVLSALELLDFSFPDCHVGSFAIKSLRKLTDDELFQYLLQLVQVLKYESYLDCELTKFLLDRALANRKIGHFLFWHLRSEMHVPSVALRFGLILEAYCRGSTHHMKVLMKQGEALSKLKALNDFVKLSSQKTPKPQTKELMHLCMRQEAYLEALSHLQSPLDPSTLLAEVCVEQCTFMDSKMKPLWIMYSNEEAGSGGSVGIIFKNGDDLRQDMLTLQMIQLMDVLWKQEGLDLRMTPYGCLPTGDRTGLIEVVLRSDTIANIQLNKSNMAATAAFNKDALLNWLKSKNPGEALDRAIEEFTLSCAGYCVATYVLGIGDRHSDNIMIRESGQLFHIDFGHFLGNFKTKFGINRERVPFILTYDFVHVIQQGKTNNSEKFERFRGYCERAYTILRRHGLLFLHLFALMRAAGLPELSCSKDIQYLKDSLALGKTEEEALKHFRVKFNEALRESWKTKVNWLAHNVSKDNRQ

Columns and labels:
mut-p110αH1047R = mut-p110αH1047R (Homo sapiens, UniProt P42336, H1047R); test: PI3K binding assay (Ki), mutant p110 alpha H1047R
mut-p110αE545K = mut-p110αE545K (Homo sapiens, UniProt P42336, E545K); test: PI3K binding assay (Ki), mutant p110 alpha E545K
PI3K δ = PI3K δ (Homo sapiens, UniProt O00329); test: PI3K binding assay (Ki), PI3K delta
PI3K alpha = PI3K alpha (Homo sapiens, UniProt P42336); conditions: cited from earlier work

Cc1nc(-c2cn3c(n2)-c2ccc(-c4cnn(C(C)(C)C(N)=O)c4)cc2OCC3)n(C(C)C)n1 [GDC-0032, 2-(4-(2-(1-isopropyl-3-methyl-1H-1,2,4-triazol-5-yl)-5,6-dihydrobenzo[f]imidazo[1,2-d][1,4]oxazepin-9-yl)-1H-pyrazol-1-yl)-2-methylpropanamide]
Ki (mut-p110αH1047R): 0.11 nM | Ki (mut-p110αE545K): 0.14 nM | Ki (PI3K δ): 0.092 nM | Ki (PI3K alpha): 0.2 nM
